The results in this text go back to patent US20190038556A1, “FORMULATIONS AND CARRIER SYSTEMS INCLUDING COMPOUND INTERACTIVE DOMAINS” (University of Pittsburgh - Of The Commonwealth System of …, priority 2012, published 2019).

A short description of data set [1]: Micelle-facilitated solubilization of JP4-039. The conditions noted are these: sufficient carrier-to-drug ratios; no crystal formation.
Data set [2] is described as follows: Particle size measurement by laser dynamic light scattering. The conditions noted are these: JP4-039 loaded micelles. The class given is physicochemical. The protocol:
1(f). Particle size measurement. […] Samples were further diluted ten times in distilled water and sizes were measured by laser dynamic light scattering using a particle sizer (Zetasizer Nano ZS instrument, available from Malvern Instruments Ltd of Worcestershire, United Kingdom). Size measurement of emulsion particles were conducted using a Coulter N4 particle sizer after a 100-fold dilution in saline.

Some results are limits rather than exact numbers.

Consider “Monomethoxy PEG2,000-α-Fmoc-ε-Oleoyl Lysine [lipopeptide 1]”, for which the “Stability of JP4-039 mixed micelle formulation over time” value in data set [1] was “unstable over time”.
On to “Monomethoxy PEG5,000-lysyl-[lysyl-(α-Fmoc-ε-oleoyl lysine)2]2 [lipopeptide 4]”, for which the “Particle Sizes w/JP4-039” value in data set [2] is recorded as 128.6 +/− 5.9 nm. Moreover, the “Stability of JP4-039 mixed micelle formulation over time” value in data set [1] is on record as “> one month”.
